Assay results published in patent US20040143095A1 (RESEARCH DEVELOPMENT FOUNDATION, published 2004).

Target: T1, human CRF receptor type 1 (human, UniProt P34998 24-415)
T1 construct: whole, on cells; also called hCRF-R1; CRF-R1
T1 sequence (looked up): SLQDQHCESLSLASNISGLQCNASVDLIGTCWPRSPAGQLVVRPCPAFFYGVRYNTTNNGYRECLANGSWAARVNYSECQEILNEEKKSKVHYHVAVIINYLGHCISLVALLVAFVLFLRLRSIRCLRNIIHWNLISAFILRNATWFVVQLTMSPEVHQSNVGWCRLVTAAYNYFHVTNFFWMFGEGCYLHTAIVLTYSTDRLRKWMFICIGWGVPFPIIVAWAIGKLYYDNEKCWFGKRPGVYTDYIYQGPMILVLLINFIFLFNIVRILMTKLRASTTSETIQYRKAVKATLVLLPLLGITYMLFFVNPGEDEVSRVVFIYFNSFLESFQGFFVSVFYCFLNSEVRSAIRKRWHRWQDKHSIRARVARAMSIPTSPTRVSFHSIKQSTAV
Assay: radioligand displacement ([125I-Tyr0,Glu1,Nle17]-sauvagine), CHO membranes

Ki: 0.32 nM
Binder: DDPPLSIDLTFHLLRTLLELARTQSQRERAEQNRIIFDSV (peptide, UniProt P55090 81-120, looked up, mature; also called Ucn; rUcn) [Urocortin (rat)]
